From ChEMBL document CHEMBL4507258, “Data for DCP probe ABT-546” (2021)
The source made the active and inactive calls. The rule behind the calls is not given here.

Protein sequences, listed by entry. Tags and fused reporters are not part of them.
UniProt P25101, whole entry: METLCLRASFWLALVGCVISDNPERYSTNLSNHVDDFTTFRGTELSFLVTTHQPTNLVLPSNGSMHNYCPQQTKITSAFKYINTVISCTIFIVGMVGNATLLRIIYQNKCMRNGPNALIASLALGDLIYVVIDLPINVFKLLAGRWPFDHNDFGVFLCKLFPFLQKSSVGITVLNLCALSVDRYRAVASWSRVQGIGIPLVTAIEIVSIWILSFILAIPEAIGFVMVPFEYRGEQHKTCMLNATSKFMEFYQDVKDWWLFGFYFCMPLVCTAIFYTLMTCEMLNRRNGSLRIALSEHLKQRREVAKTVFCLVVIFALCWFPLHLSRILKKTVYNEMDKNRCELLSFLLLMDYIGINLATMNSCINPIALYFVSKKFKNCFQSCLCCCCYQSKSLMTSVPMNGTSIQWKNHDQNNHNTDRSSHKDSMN

Molecular target: Endothelin-1 receptor (Homo sapiens, UniProt P25101)
Test: Endothelin-1-evoked phosphatidylinositol hydrolysis
Assay type: functional

CCCCN(CCCC)C(=O)CN1C[C@H](c2cc(OC)c3c(c2)OCO3)[C@@H](C(=O)O)[C@@H]1CC(C)(C)CCC [ABT-546]
IC50: active: 0.59 nM
